The target of assay [1] is T1, μ-opioid receptor (Homo sapiens (Human), UniProt P35372). As to the kind of experiment: μ-opioid receptor [35S]GTPγS functional assay, U-2 OS cells. (In general: GTPγS is a poorly hydrolysed GTP analogue; its binding reports G protein activation.)
The target of a further assay is κ-opioid receptor (Homo sapiens (Human), UniProt P41145). As to the kind of experiment: κ-opioid receptor [35S]GTPγS functional assay, U-2 OS cells.
The target in assay [2] is T1, μ-opioid receptor. Put plainly: μ-opioid receptor [35S]GTPγS functional assay, HEK-293 cells. As to conditions: for μ Emax (%): maximal effect relative to DAMGO; for EC50: read-out: μ EC50, μ GTP EC50.

Sequences of proteins named here, by UniProt entry; tags and fusion partners are left off.
UniProt P35372, whole entry: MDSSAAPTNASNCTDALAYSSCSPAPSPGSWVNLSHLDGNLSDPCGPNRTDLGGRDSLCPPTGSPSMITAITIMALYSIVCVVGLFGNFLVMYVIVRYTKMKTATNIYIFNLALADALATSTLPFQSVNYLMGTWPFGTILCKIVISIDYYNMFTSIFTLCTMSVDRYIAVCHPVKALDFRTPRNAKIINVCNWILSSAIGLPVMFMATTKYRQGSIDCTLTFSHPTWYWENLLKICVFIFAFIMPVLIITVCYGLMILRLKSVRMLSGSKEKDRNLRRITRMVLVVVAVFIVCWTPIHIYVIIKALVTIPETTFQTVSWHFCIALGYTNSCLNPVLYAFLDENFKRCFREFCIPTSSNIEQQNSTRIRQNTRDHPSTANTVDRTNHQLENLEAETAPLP
UniProt P41145, whole entry: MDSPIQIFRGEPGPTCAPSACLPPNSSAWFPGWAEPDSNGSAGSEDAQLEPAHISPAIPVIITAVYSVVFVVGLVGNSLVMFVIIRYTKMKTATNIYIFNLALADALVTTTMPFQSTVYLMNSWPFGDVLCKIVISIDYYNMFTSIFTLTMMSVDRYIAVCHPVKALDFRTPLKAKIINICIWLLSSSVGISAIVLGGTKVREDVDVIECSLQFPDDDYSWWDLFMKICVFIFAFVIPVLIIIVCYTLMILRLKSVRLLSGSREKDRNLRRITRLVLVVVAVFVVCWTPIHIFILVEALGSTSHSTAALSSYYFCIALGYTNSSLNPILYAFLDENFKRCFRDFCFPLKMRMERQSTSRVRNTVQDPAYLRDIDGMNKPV

Only a part of the results on these compounds is given; other tests are left out. Bounds are passed on as bounds.

As a reminder, the EC50 is the concentration needed to bring the measured effect to its halfway point.

For “(4R,4aS,6R,7R,7aR,12bS)-3-(cyclopropylmethyl)-6-((furan-3-ylmethoxy)methyl)-7-methoxy-6-methyl-1,2,3,4,5,6,7,7a-octahydro-4a,7-ethano-4,12-methanobenzofuro[3,2-e]isoquinoline”, the “μ Emax (%)” value at μ-opioid receptor [1] (maximal effect relative to DAMGO, U-2 OS cells) came out at 68.3 ± 0.88%; on μ-opioid receptor [2] (HEK-293 cells) it was 1.50%. In addition, the EC50 at μ-opioid receptor [1] (read-out: μ EC50, μ GTP EC50, membranes from U-2 OS cells) was 0.13 nM; on κ-opioid receptor (read-out: κ EC50, κ GTP EC50, membranes from U-2 OS cells), 0.037 nM; on μ-opioid receptor [2] (HEK-293 cells, μM), > 20 µM. The “κ Emax (%)” value at κ-opioid receptor (maximal effect relative to U69,593, U-2 OS cells) was 105.0 ± 5.69%.
On to “(4R,4aS,6R,7R,7aR,12bS)-6-((benzylamino)methyl)-3-(cyclopropylmethyl)-7-methoxy-1,2,3,4,5,6,7,7a-octahydro-4a,7-ethano-4,12-methanobenzofuro[3,2-e]isoquinolin-9-ol”, for which the “μ Emax (%)” value at μ-opioid receptor [2] (HEK-293 cells) is recorded as 28.7 ± 4.41%. Moreover, at μ-opioid receptor [2] (membranes from HEK-293 cells), the EC50 stood at 0.00339 µM.

For the origin of these results see patent US9988392B2, “7-beta-alkyl analogs of orvinols” (dated 2018).
